Tested on: MIAPaCa-2 xenograft tumors
Assay: MIAPaCa-2 xenograft tumor volume study
Assay type: in vivo, mice
Conditions: Day 8; n=5; MRTX1719 100 mg/kg PO QD; Docetaxel 15 mg/kg IP Q7D; combination 100 mg PO QD + 15 mg/kg IP Q7D
Experimental: Immunodeficient female nu/nu or BALBC/Nude mice were subcutaneously implanted with 3×10^6 to 1×10^7 human derived cancer cells depending on the cell line xenograft model. Tumors were measured using calipers until they reached approximately 100-150 mm^3. Animals were randomized to receive A) vehicle (0.5% methylcellulose (4000 cps)/0.2% Tween80 in water), B) a PRMT5 inhibitor, C) docetaxel, or D) the PRMT5 inhibitor and docetaxel, administered in accordance with the indicated route, schedule and treatment duration. Tumor volume was measured twice a week (n=5/treatment group). Average tumor volume and standard error of the mean was calculated and plotted at each study day in GraphPad.
This example was carried out according to the study procedure described above. The PRMT5 inhibitor was MRTX1719 administered at 100 mg/kg once a day (QD). MRTX1719 is (2M)-2-(4-(4-(aminomethyl)-1-oxo-1,2-dihydrophthalazin-6-yl)-1-methyl-1H-pyrazol-5-yl)-4-chloro-6-cyclopropoxy-3-fluorobenzonitrile, disclosed as Example 16-8 at p. 307 of the International patent publication No. WO 2021/050915 A1, published 18 Mar. 2021, incorporated by reference in its entirety.
Substantially the same procedure of Example 1 was repeated except with mice bearing MIAPaCa-2 xenograft tumors.

CC(=O)O[C@@]12CO[C@@H]1C[C@H](O)[C@@]1(C)C(=O)[C@H](O)C3=C(C)[C@@H](OC(=O)[C@H](O)[C@@H](NC(=O)OC(C)(C)C)c4ccccc4)C[C@@](O)([C@@H](OC(=O)c4ccccc4)[C@H]21)C3(C)C [Docetaxel, docetaxel]
Tumor Volume, Mean: 243 mm^3
